From ChEMBL document CHEMBL6087473, “Novel PD-L1/VISTA Dual Inhibitor as Potential Immunotherapy Agents” (J Med Chem, 2025) come the findings set out here.

Chains of the proteins cited; added tags and fusions are not shown. Lines headed by an entry give the natural chain unless they say otherwise; changes in a name come on top.
UniProt Q15116: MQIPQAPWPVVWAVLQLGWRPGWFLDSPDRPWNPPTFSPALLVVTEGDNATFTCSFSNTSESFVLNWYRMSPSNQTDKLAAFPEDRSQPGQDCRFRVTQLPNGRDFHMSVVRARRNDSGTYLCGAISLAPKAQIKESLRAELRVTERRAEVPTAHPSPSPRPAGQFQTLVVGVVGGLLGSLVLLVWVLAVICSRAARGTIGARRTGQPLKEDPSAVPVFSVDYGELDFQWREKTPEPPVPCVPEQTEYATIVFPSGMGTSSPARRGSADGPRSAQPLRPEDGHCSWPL
UniProt Q9NZQ7: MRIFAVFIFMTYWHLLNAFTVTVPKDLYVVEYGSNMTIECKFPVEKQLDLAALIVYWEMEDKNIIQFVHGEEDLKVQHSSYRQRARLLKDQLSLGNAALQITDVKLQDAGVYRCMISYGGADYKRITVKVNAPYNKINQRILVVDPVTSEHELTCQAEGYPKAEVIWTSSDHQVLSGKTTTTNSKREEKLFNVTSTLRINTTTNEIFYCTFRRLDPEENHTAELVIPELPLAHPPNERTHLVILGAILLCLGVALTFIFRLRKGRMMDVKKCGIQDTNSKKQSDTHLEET

The test concerns the target Programmed cell death protein 1/Programmed cell death 1 ligand 1 (Homo sapiens) (UniProt Q15116+Q9NZQ7). Kind of test: Molecular glue activity at PD-1/PD-L1 interaction in human NCI-H292 cells assessed as inhibition of protein complex incubated for 48 hrs by immunofluorescence based analysis. The class given is cell-based. Conditions: dose 0.5-2 µM.

For the compound `COc1cc(CN[C@@H](CO)C(=O)O)nc(Nc2cccc(-c3ccccc3)c2C)n1`, the inhibition result was “Dose-dependent-effect”.
